Experiment in all cases: flow cytometry on cells; IgG pre-complexed with equimolar goat F(ab')2 against its light chain (anti-κ for Fog-1, anti-λ for B2), on CHO cells expressing a single human FcγRII or FcγRIII; complexes detected with FITC anti-goat IgG; mean fluorescence of ≥12 000 cells
In experiment [1] the target is FcγRIIa, of allotypes 131R and 131H, and FcγRIIb.
The target in experiment [2] is human FcγRIIIa of allotype 158F, GPI-anchored (human) (UniProt P08637).
For experiment [3], the target named is human FcγRIIIa of allotype 158V, GPI-anchored (human).

Chains of the proteins cited; added tags and fusions are not shown. Residues count along the entry.
UniProt P08637, 17-254: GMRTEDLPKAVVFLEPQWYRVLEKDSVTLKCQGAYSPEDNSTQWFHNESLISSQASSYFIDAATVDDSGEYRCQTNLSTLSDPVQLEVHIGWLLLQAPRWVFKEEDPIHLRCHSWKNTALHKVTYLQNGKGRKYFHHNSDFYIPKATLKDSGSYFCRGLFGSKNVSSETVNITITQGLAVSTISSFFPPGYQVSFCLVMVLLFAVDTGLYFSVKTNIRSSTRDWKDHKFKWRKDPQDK

Values joined by “and” are separate entries in the source; they are usually repeats but may differ in a detail not shown here. Equal values may be shown once.

Fog-1 G1Δnab (antibody): in experiment [1], the fold less strongly bound than Fog-1 G1 was 3 fold and 8 fold. The fold lower binding than G1 is 100 fold in experiment [2] and 50 fold in experiment [3].
